Assay results: paper PMC9569420 (Communications Biology, 2022)
Several values for one entry are separate records, joined by “and”; a condition that tells them apart may be missing. Equal values may be shown once. Read-outs that look alike come from different tables or passages of the source.

Chains of the proteins cited; added tags and fusions are not shown. Lines headed by an entry give the natural chain unless they say otherwise; changes in a name come on top. Residues count along the entry.
UniProt Q00536: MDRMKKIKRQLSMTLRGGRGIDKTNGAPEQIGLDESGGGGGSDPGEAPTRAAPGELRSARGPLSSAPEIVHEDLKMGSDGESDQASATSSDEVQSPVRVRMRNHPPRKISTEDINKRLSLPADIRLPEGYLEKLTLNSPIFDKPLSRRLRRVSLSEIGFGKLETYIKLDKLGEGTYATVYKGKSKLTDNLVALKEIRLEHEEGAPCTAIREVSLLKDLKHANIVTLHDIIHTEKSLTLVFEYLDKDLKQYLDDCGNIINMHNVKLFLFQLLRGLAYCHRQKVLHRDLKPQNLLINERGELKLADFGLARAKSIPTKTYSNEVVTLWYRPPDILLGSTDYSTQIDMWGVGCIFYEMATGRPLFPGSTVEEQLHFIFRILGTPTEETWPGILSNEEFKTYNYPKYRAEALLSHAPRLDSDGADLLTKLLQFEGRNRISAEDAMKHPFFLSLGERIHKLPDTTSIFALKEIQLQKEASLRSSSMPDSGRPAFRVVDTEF
UniProt Q00537: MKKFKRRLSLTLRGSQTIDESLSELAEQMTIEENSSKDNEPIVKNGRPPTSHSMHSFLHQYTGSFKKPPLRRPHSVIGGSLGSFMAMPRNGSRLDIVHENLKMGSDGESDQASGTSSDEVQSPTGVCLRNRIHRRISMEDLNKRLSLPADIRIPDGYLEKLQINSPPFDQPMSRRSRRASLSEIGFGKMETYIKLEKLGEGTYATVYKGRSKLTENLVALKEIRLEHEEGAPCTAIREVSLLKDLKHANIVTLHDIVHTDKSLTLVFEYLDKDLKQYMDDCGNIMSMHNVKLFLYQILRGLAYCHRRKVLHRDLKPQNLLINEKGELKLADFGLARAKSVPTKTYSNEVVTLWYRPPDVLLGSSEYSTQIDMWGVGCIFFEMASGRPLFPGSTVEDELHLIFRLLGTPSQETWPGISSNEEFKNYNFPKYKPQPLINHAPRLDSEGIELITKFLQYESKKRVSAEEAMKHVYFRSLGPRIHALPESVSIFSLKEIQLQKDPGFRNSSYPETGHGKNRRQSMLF
UniProt Q9UEE5: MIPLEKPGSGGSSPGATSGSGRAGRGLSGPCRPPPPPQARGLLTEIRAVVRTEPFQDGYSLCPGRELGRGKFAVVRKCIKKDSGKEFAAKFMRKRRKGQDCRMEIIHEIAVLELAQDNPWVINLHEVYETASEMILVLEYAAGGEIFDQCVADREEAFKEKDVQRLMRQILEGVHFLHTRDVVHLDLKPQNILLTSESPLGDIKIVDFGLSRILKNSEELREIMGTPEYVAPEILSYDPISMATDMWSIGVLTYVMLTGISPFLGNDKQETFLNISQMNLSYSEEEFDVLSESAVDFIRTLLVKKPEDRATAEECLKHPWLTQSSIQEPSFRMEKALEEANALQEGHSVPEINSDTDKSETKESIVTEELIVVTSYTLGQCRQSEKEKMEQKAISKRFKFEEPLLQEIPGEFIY
UniProt P54764, 20-986: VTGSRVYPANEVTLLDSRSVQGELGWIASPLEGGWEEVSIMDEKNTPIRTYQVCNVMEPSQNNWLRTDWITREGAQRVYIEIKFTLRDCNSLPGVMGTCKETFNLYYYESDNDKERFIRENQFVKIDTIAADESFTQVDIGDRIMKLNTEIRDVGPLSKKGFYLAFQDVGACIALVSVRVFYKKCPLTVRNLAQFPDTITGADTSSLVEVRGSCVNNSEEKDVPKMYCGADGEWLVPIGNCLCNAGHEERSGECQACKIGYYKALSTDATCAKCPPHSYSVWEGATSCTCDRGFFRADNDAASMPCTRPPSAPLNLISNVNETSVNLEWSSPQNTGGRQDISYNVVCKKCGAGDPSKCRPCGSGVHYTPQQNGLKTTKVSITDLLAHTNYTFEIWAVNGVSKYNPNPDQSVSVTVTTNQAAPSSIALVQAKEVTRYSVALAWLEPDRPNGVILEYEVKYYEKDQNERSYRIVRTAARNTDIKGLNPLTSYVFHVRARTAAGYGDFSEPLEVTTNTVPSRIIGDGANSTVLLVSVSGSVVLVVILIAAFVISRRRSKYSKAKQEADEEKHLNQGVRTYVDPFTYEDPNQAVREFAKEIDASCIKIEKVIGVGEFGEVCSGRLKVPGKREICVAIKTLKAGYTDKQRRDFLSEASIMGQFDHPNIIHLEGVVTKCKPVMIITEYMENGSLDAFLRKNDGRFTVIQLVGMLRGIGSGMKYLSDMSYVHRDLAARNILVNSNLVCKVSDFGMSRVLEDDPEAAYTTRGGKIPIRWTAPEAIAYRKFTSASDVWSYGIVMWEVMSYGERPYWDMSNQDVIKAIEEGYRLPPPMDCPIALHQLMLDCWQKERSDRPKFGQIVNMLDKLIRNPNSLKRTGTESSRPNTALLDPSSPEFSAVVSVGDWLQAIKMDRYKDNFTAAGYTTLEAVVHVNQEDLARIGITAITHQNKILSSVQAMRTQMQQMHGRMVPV
UniProt Q8TF76: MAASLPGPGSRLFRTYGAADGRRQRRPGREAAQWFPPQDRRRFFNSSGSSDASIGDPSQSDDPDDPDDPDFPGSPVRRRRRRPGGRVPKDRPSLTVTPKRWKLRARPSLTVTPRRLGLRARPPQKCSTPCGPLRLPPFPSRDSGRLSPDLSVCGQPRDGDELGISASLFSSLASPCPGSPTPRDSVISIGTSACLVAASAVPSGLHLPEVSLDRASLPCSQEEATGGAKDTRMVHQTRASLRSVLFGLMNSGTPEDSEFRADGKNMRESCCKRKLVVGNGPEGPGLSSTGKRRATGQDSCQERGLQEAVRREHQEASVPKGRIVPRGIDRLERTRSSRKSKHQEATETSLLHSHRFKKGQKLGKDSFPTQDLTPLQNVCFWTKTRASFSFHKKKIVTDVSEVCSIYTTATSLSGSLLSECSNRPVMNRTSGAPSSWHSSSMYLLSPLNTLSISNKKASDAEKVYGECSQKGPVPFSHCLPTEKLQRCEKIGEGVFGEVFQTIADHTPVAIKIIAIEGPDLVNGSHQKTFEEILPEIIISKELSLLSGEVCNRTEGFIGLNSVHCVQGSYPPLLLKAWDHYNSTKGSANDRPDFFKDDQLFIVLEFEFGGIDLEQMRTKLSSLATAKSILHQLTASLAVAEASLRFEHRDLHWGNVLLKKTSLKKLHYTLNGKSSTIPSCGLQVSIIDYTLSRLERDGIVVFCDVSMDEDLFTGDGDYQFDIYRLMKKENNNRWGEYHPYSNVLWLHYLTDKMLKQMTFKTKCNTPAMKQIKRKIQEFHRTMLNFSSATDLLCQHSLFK
UniProt P20794: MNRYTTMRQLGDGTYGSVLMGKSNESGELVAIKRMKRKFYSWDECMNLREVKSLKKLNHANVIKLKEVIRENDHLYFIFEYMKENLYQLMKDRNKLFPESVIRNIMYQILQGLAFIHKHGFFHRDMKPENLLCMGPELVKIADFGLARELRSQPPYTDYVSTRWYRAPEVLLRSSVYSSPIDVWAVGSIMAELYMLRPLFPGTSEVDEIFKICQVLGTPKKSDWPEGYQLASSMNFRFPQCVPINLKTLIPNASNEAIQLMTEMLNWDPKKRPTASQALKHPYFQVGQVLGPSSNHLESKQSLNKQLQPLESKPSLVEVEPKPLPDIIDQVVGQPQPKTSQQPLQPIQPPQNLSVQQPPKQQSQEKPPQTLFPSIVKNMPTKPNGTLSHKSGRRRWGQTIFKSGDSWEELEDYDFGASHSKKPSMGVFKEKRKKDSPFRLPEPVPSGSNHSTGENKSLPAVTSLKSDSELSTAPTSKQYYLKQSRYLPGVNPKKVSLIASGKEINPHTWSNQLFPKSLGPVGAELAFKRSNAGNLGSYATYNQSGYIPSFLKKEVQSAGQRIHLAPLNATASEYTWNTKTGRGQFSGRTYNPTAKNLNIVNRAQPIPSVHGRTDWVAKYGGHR
UniProt Q9P0L2: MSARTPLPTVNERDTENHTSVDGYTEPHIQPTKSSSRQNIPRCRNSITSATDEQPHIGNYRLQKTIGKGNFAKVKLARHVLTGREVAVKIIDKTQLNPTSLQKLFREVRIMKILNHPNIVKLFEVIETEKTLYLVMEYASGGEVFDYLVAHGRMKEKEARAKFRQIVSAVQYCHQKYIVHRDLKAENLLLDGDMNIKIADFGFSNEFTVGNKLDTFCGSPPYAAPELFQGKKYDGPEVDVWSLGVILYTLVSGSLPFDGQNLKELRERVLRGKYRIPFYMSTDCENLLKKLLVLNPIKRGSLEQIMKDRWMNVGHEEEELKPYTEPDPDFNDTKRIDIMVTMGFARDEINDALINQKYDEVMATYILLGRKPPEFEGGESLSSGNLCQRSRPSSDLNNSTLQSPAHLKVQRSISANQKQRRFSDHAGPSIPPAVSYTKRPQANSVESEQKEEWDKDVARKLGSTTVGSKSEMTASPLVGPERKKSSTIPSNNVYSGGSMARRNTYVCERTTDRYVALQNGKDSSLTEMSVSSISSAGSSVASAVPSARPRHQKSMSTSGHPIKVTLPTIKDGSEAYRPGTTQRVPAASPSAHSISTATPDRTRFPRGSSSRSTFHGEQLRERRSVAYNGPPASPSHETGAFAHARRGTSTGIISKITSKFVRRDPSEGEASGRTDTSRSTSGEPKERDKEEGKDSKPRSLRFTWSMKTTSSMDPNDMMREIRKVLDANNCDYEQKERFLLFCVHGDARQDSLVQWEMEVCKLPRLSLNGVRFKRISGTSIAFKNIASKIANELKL
UniProt Q04759: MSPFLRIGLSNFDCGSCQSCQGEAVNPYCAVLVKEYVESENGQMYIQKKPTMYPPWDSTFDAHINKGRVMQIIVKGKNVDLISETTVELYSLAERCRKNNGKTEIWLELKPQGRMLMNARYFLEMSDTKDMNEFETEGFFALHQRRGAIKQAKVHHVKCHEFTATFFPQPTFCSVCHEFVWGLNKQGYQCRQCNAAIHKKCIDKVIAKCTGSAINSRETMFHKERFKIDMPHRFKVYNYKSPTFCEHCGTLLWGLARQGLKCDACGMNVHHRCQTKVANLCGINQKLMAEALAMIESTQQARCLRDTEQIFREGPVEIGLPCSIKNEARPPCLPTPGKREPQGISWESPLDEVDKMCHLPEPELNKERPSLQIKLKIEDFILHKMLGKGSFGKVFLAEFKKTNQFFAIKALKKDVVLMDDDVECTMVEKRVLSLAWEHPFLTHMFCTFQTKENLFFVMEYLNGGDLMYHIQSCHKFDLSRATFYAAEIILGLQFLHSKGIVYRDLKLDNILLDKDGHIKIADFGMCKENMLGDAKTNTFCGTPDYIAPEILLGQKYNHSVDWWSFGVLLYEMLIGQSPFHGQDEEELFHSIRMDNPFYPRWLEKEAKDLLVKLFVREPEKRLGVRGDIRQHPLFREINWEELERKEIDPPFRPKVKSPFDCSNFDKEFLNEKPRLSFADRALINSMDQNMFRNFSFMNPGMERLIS
UniProt P42680: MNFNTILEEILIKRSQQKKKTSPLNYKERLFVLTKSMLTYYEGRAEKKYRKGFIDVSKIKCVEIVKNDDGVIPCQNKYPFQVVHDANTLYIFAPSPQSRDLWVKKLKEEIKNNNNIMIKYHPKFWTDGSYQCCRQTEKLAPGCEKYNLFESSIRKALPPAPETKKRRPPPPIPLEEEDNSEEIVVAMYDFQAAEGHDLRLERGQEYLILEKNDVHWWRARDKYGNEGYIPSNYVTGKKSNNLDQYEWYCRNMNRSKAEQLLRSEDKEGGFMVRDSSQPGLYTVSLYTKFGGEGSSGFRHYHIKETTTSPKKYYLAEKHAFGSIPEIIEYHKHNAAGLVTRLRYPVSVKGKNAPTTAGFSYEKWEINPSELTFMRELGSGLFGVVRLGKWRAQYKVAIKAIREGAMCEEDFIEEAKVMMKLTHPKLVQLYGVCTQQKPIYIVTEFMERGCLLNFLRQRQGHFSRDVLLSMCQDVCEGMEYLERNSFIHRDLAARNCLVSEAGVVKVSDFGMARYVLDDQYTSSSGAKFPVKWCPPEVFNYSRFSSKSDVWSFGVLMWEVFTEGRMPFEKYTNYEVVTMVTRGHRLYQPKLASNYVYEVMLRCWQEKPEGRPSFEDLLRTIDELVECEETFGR
UniProt Q86Y07: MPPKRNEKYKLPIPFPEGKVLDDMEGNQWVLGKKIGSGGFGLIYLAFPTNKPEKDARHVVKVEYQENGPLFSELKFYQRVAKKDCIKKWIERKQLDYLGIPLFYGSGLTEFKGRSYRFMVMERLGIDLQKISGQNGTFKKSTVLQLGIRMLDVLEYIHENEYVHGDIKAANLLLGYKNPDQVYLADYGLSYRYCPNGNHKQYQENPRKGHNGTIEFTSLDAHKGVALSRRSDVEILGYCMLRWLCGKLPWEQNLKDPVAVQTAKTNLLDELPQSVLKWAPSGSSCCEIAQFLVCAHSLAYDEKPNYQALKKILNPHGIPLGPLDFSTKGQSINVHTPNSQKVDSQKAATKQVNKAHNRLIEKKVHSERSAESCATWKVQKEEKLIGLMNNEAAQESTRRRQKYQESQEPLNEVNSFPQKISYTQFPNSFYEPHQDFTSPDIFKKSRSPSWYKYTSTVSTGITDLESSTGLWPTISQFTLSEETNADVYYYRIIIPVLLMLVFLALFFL

Tests used:
ALK4/ACVR1B = target: T1, ALK4/ACVR1B (Homo sapiens, UniProt P36896); test: HotSpot kinase assay; type: biochemical; details: 10µM
T1 construct: purchased Reaction Biology Corporation

BRSK1 = target: T2, BRSK1 (Homo sapiens, UniProt Q8TDC3); test: HotSpot kinase assay; type: biochemical; details: 10µM
T2 construct: purchased Reaction Biology Corporation

CAMK4 = target: T3, CAMK4 (Homo sapiens, UniProt Q16566); test: HotSpot kinase assay; type: biochemical; details: 10µM
T3 construct: purchased Reaction Biology Corporation

CDK1/cyclin E = target: T4, CDK1/cyclin E (Homo sapiens, UniProt P06493); test: HotSpot kinase assay; type: biochemical; details: 10µM
T4 construct: purchased Reaction Biology Corporation

CDK16/cyclin Y (PCTAIRE) = target: T5, CDK16/cyclin Y (PCTAIRE) (Homo sapiens, UniProt Q00536); test: HotSpot kinase assay; type: biochemical; details: 10µM
T5 construct: purchased Reaction Biology Corporation

CDK17/cyclin Y (PCTK2) = target: T6, CDK17/cyclin Y (PCTK2) (Homo sapiens, UniProt Q00537); test: HotSpot kinase assay; type: biochemical; details: 10µM
T6 construct: purchased Reaction Biology Corporation

CDK2/cyclin O = target: T7, CDK2/cyclin O (Homo sapiens, UniProt P24941); test: HotSpot kinase assay; type: biochemical; details: 10µM
T7 construct: purchased Reaction Biology Corporation

CDK3/cyclin E2 = target: T8, CDK3/cyclin E2 (Homo sapiens, UniProt Q00526); test: HotSpot kinase assay; type: biochemical; details: 10µM
T8 construct: purchased Reaction Biology Corporation

CDK4/cyclin D1 = target: T9, CDK4/cyclin D1 (Homo sapiens, UniProt P11802); test: HotSpot kinase assay; type: biochemical; details: 10µM
T9 construct: purchased Reaction Biology Corporation

CSK = target: T10, CSK (Homo sapiens, UniProt P41240); test: HotSpot kinase assay; type: biochemical; details: 10µM
T10 construct: purchased Reaction Biology Corporation

DCAMKL1 = target: T11, DCAMKL1 (Homo sapiens, UniProt O15075); test: HotSpot kinase assay; type: biochemical; details: 10µM
T11 construct: purchased Reaction Biology Corporation

DRAK1/STK17A = target: T12, DRAK1/STK17A (Homo sapiens, UniProt Q9UEE5); test: HotSpot kinase assay; type: biochemical; details: 10µM
T12 construct: purchased Reaction Biology Corporation

EPHA4 = target: T13, EPHA4 (Homo sapiens, UniProt P54764); test: HotSpot kinase assay; type: biochemical; details: 10µM
T13 construct: purchased Reaction Biology Corporation

EPHB1 = target: T14, EPHB1 (Homo sapiens, UniProt P54762); test: HotSpot kinase assay; type: biochemical; details: 10µM
T14 construct: purchased Reaction Biology Corporation

EPHB3 = target: T15, EPHB3 (Homo sapiens, UniProt P54753); test: HotSpot kinase assay; type: biochemical; details: 10µM
T15 construct: purchased Reaction Biology Corporation

ERN2/IRE2 = target: T16, ERN2/IRE2 (Homo sapiens, UniProt Q76MJ5); test: HotSpot kinase assay; type: biochemical; details: 10µM
T16 construct: purchased Reaction Biology Corporation

FGFR2 = target: T17, FGFR2 (Homo sapiens, UniProt P21802); test: HotSpot kinase assay; type: biochemical; details: 10µM
T17 construct: purchased Reaction Biology Corporation

Haspin = target: T18, Haspin (Homo sapiens, UniProt Q8TF76); test: HotSpot kinase assay; type: biochemical; details: 10µM
T18 construct: purchased Reaction Biology Corporation

IKKa/CHUK = target: T19, IKKa/CHUK (Homo sapiens, UniProt O15111); test: HotSpot kinase assay; type: biochemical; details: 10µM
T19 construct: purchased Reaction Biology Corporation

IRAK1 = target: T20, IRAK1 (Homo sapiens, UniProt P51617); test: HotSpot kinase assay; type: biochemical; details: 10µM
T20 construct: purchased Reaction Biology Corporation

KSR1 = target: T21, KSR1 (Homo sapiens, UniProt Q8IVT5); type: biochemical; details: 10µM
T21 construct: purchased Reaction Biology Corporation

LATS1 = target: T22, LATS1 (Homo sapiens, UniProt O95835); test: HotSpot kinase assay; type: biochemical; details: 10µM
T22 construct: purchased Reaction Biology Corporation

LYN = target: T23, LYN (Homo sapiens, UniProt P07948); test: HotSpot kinase assay; type: biochemical; details: 10µM
T23 construct: purchased Reaction Biology Corporation

MAK = target: T24, MAK (Homo sapiens, UniProt P20794); test: HotSpot kinase assay; type: biochemical; details: 10µM
T24 construct: purchased Reaction Biology Corporation

MARK1 = target: T25, MARK1 (Homo sapiens, UniProt Q9P0L2); test: HotSpot kinase assay; type: biochemical; details: 10µM
T25 construct: purchased Reaction Biology Corporation

MLCK/MYLK = target: T26, MLCK/MYLK (Homo sapiens, UniProt Q15746); test: HotSpot kinase assay; type: biochemical; details: 10µM
T26 construct: purchased Reaction Biology Corporation

MSK2/RPS6KA4 = target: T27, MSK2/RPS6KA4 (Homo sapiens, UniProt O75676); test: HotSpot kinase assay; type: biochemical; details: 10µM
T27 construct: purchased Reaction Biology Corporation

MYLK3 = target: T28, MYLK3 (Homo sapiens, UniProt Q32MK0); test: HotSpot kinase assay; type: biochemical; details: 10µM
T28 construct: purchased Reaction Biology Corporation

PKCg = target: T29, PKCg (Homo sapiens, UniProt P05129); test: HotSpot kinase assay; type: biochemical; details: 10µM
T29 construct: purchased Reaction Biology Corporation

PKCnu/PRKD3 = target: T30, PKCnu/PRKD3 (Homo sapiens, UniProt O94806); test: HotSpot kinase assay; type: biochemical; details: 10µM
T30 construct: purchased Reaction Biology Corporation

PKCtheta = target: T31, PKCtheta (Homo sapiens, UniProt Q04759); test: HotSpot kinase assay; type: biochemical; details: 10µM
T31 construct: purchased Reaction Biology Corporation

ROCK2 = target: T32, ROCK2 (Homo sapiens, UniProt O75116); test: HotSpot kinase assay; type: biochemical; details: 10µM
T32 construct: purchased Reaction Biology Corporation

STK25/YSK1 = target: T33, STK25/YSK1 (Homo sapiens, UniProt O00506); test: HotSpot kinase assay; type: biochemical; details: 10µM
T33 construct: purchased Reaction Biology Corporation

TEC = target: T34, TEC (Homo sapiens, UniProt P42680); test: HotSpot kinase assay; type: biochemical; details: 10µM
T34 construct: purchased Reaction Biology Corporation

TSSK2 = target: T35, TSSK2 (Homo sapiens, UniProt Q96PF2); test: HotSpot kinase assay; type: biochemical; details: 10µM
T35 construct: purchased Reaction Biology Corporation

VRK2 = target: T36, VRK2 (Homo sapiens, UniProt Q86Y07); test: HotSpot kinase assay; type: biochemical; details: 10µM
T36 construct: purchased Reaction Biology Corporation

WEE1 = target: T37, WEE1 (Homo sapiens, UniProt P30291); test: HotSpot kinase assay; type: biochemical; details: 10µM
T37 construct: purchased Reaction Biology Corporation

ZAP70 = target: T38, ZAP70 (Homo sapiens, UniProt P43403); test: HotSpot kinase assay; type: biochemical; details: 10µM
T38 construct: purchased Reaction Biology Corporation

AMPK (A1/B2/G2) = target: T39, AMPK (A1/B2/G2) (Homo sapiens, UniProt Q13131); test: HotSpot kinase assay; type: biochemical; details: 10µM
T39 construct: purchased Reaction Biology Corporation

EIF2AK2 = target: T40, EIF2AK2 (Homo sapiens, UniProt P19525); test: HotSpot kinase assay; type: biochemical; details: 10µM
T40 construct: purchased Reaction Biology Corporation

EIF2AK3 = target: T41, EIF2AK3 (Homo sapiens, UniProt Q9NZJ5); test: HotSpot kinase assay; type: biochemical; details: 10µM
T41 construct: purchased Reaction Biology Corporation

CO[C@@H]1[C@H](N(C)C(=O)CCC(=O)NCc2cn(CCCS(=O)(=O)O)nn2)C[C@H]2O[C@]1(C)n1c3ccccc3c3c4c(c5c6ccccc6n2c5c31)C(=O)NC4 [CIMSS]
% Enzyme Activity (relative to DMSO controls) (ALK4/ACVR1B): 57.94%
% Enzyme Activity (relative to DMSO controls) (BRSK1): 1.28%
% Enzyme Activity (relative to DMSO controls) (CAMK4): 62.68%
% Enzyme Activity (relative to DMSO controls) (CDK1/cyclin E): 17.80%
% Enzyme Activity (relative to DMSO controls) (CDK16/cyclin Y (PCTAIRE)): 76.42%
% Enzyme Activity (relative to DMSO controls) (CDK17/cyclin Y (PCTK2)): 52.31%
% Enzyme Activity (relative to DMSO controls) (CDK2/cyclin O): 4.80%
% Enzyme Activity (relative to DMSO controls) (CDK3/cyclin E2): 20.66%
% Enzyme Activity (relative to DMSO controls) (CDK4/cyclin D1): 68.11%
% Enzyme Activity (relative to DMSO controls) (CSK): 2.95%
% Enzyme Activity (relative to DMSO controls) (DCAMKL1): 80.77%
% Enzyme Activity (relative to DMSO controls) (DRAK1/STK17A): 17.55%
% Enzyme Activity (relative to DMSO controls) (EPHA4): 28.44%
% Enzyme Activity (relative to DMSO controls) (EPHB1): 1.62%
% Enzyme Activity (relative to DMSO controls) (EPHB3): 28.88%
% Enzyme Activity (relative to DMSO controls) (ERN2/IRE2): 5.93%
% Enzyme Activity (relative to DMSO controls) (FGFR2): 2.54%
% Enzyme Activity (relative to DMSO controls) (Haspin): 49.36%
% Enzyme Activity (relative to DMSO controls) (IKKa/CHUK): 30.89%
% Enzyme Activity (relative to DMSO controls) (IRAK1): 3.16%
% Enzyme Activity (relative to DMSO controls) (KSR1): 86.36%
% Enzyme Activity (relative to DMSO controls) (LATS1): 9.79%
% Enzyme Activity (relative to DMSO controls) (LYN): 1.83%
% Enzyme Activity (relative to DMSO controls) (MAK): 12.70%
% Enzyme Activity (relative to DMSO controls) (MARK1): 1.16%
% Enzyme Activity (relative to DMSO controls) (MLCK/MYLK): 14.41%
% Enzyme Activity (relative to DMSO controls) (MSK2/RPS6KA4): 1.99%
% Enzyme Activity (relative to DMSO controls) (MYLK3): 64.65%
% Enzyme Activity (relative to DMSO controls) (PKCg): 1.53%
% Enzyme Activity (relative to DMSO controls) (PKCnu/PRKD3): 11.12%
% Enzyme Activity (relative to DMSO controls) (PKCtheta): 6.89%
% Enzyme Activity (relative to DMSO controls) (ROCK2): 12.53%
% Enzyme Activity (relative to DMSO controls) (STK25/YSK1): 3.00%
% Enzyme Activity (relative to DMSO controls) (TEC): 19.75%
% Enzyme Activity (relative to DMSO controls) (TSSK2): 21.04%
% Enzyme Activity (relative to DMSO controls) (VRK2): 81.67%
% Enzyme Activity (relative to DMSO controls) (WEE1): 43.28%
% Enzyme Activity (relative to DMSO controls) (ZAP70): 12.64%
% Enzyme Activity (relative to DMSO controls) (AMPK (A1/B2/G2)): -0.06% and -0.34%
% Enzyme Activity (relative to DMSO controls) (EIF2AK2): 9.34%
% Enzyme Activity (relative to DMSO controls) (EIF2AK3): 60.18%
viability (nuclei relative to the DMSO control) (Huh-7.5 cells; 24h, 0.78125 uM): 82.02% and 92.58%
viability (nuclei relative to the DMSO control) (Huh-7.5 cells; 24h, 1.5625 uM): 95.02% and 79.38%
viability (nuclei relative to the DMSO control) (Huh-7.5 cells; 24h, 3.125 uM): 97.46% and 88.74%
viability (nuclei relative to the DMSO control) (Huh-7.5 cells; 24h, 25 uM): 93.3% and 92.73%
viability (nuclei relative to the DMSO control) (Huh-7.5 cells; 24h, 50 uM): 87.27% and 89.31%
viability (nuclei relative to the DMSO control) (Huh-7.5 cells; 72 h, 0.78125 uM): 98.61% and 93.6809%
viability (nuclei relative to the DMSO control) (Huh-7.5 cells; 72 h, 25 uM): 65.5% and 71.82%
viability (nuclei relative to the DMSO control) (Huh-7.5 cells; 72 h, 50 uM): 68.9% and 78.72%
